Experimental data: patent publication US8690865B2, “Methods and devices for thermal treatment” (Georgia Tech Research Corporation, priority 2004, dated 2014)

Experiment: skin permeability measurement in Franz diffusion cell after microheater microablation
Conditions: cadaver epidermis, Franz diffusion cell at 37° C., after microablation by microheater array; added individually to donor compartment
Method: Microheater components are tested for use in ablation of stratum corneum and increasing barrier permeability and increased drug transport by assessing transport across cadaver skin by three different molecules. Calcein is a low molecular weight (623 Da) fluorescent molecule used to measure skin permeability by spectrofluorimetric assay and image transport pathways in skin by confocal microscopy. […] Insulin is a polypeptide (6 kDa) that will be used for comparison with in vivo studies involving insulin delivery to diabetic rats. To perform skin permeability measurements, cadaver epidermis is placed in a Franz diffusion cell at 37° C. and an array of microheaters is then positioned on the stratum corneum side and thermally activated to cause microablation. […] Every hour, or more frequently, 1 ml of receptor solution is sampled, and replaced with fresh saline, and fluorescence intensity is measured using calibrated spectrofluorometry and analyzed to determine rates of transdermal delivery.

## bovine serum albumin [BSA]
  transport across cadaver skin (measured in receptor solution): later measured in the receptor solution
